The source of these data is publication PMC9697446 (International Journal of Molecular Sciences, 2022).

The chains behind the UniProt entries cited, without tags or fusion partners. Residues count along the entry.
UniProt P22303, 32-617 isoform P22303-2 limits assumed: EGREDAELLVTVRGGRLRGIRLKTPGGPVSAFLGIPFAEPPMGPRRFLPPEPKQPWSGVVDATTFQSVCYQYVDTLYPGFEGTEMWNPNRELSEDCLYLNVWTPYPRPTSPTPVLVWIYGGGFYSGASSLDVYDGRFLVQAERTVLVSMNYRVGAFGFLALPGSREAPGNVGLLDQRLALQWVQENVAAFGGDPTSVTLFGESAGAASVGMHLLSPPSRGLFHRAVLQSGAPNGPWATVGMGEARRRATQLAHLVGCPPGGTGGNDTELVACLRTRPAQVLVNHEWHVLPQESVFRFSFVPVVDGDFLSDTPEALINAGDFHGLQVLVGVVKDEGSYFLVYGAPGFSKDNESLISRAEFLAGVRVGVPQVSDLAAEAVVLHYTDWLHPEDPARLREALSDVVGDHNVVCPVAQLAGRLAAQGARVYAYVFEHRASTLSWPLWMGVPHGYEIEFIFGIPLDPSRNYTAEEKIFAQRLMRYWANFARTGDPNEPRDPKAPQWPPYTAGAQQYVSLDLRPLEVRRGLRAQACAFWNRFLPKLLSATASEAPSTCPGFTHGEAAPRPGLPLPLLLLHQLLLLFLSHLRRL

For orientation: IC50 means the concentration at which inhibition is half-maximal.

The assay deals with T1, human erythrocyte AChE (Homo sapiens, UniProt P22303).
T1 construct: The esterase profile was estimated using the human erythrocyteAChE; purchased Sigma-Aldrich; host or cells: human erythrocytes
The assay is classed as biochemical. The note with it: IC50 ± SEM, n = 3. The protocol:
The esterase profile was estimated using the human erythrocyteAChE, the equine serum BChE, and the porcine liver CES.
Human erythrocyte AChE, equine serum BChE, porcine liver CES, acetylthiocholine iodide (ATCh), butyrylthiocholine iodide (BTCh), 5,5′-dithio-bis-(2-nitrobenzoic acid) (DTNB), 4-nitrophenol acetate (4-NPA), and BNPP were purchased from Sigma-Aldrich (St. Louis, MO, USA).
AChE and BChE activities were measured via the Ellman method. The assay solution consisted of 0.1 M K/Na phosphate buffer pH 7.5, 25 °C with the addition of 0.33 mM DTNB, 0.02 unit/mL of AChE or BChE and 1 mM of substrate (ATCh or BTCh, respectively). The assays were carried out with a reagent blank containing all components (except AChE orBChE) in order to account for the non-enzymatic hydrolysis of the substrate. […]
The test compounds were dissolved in DMSO, and the incubation mixture contained 2% (v/v) of the solvent. Enzyme inhibition was first assessed at a single concentration of 20 µM for each compound after a 5 min incubation at 25 °C in three separate experiments. […] Measurements were performed with a FLUOStar Optima microplate reader (BMG Labtech, Ortenberg, Germany). […] The results were expressed as the mean ± SEM. The reaction rates in the presence and absence of the inhibitor were compared, and the percent of residual enzyme activity due to the presence of test compounds was calculated.

The structures appear in SMILES notation.

The compound `CN(C)c1ccc2nc3ccc(=[N+](C)C)cc-3sc2c1` [MB, Methylene blue, reference compound] gave an IC50 of 1.21 ± 0.09 µM.
